Measured values taken from patent US9023878B2, “2-iminobiotin formulations and uses thereof” (Neurophyxia B.V., priority 2010, dated 2015).

Legend:
[1] = Novel excipients (Cremophor EL, Solutol HS 15): 2-IB content of formulations at t=0 and after 48 hours; details: Solutol HS 15 formulation
[2] = From the text: Necropsy took place approximately one hour after the second injection. Blood and brain samples were collected for both the mother and fetuses.

N=C1N[C@H]2[C@H](CS[C@H]2CCCCC(=O)O)N1 [Formulation 2-IB, 2-iminobiotin]
Concentration t = 48 h relative to t = 0 ([1]; nominal 5.0 mg/ml, pH 2.4): 85%
Concentration t = 48 h relative to t = 0 ([1]; nominal 5.0 mg/ml, pH 2.8): 100%
Concentration t = 48 h relative to t = 0 ([1]; nominal 5.0 mg/ml, pH 3.0): 105%
Concentration t = 48 h relative to t = 0 ([1]; nominal 5.0 mg/ml, pH 3.5): 95%
Concentration t = 48 h relative to t = 0 ([1]; nominal 5.0 mg/ml, pH 3.6): 87%
Concentration t = 48 h relative to t = 0 ([1]; nominal 5.0 mg/ml, pH 3.8): 51%
Concentration t = 48 h relative to t = 0 ([1]; nominal 5.0 mg/ml, pH 10.2): 0%
Concentration t = 48 h relative to t = 0 ([1]; nominal 10 mg/ml, pH 3.0): 95%
Concentration t = 48 h relative to t = 0 ([1]; nominal 10 mg/ml, pH 3.5): 97%
Concentration t = 48 h relative to t = 0 ([1]; nominal 20 mg/ml, pH 3.0): 101%
Concentration t = 48 h relative to t = 0 ([1]; nominal 20 mg/ml, pH 3.5): 90%
average brain to plasma ratio, maternal animals ([2]; 55 mg/kg sc): 0.03
plasma concentration, maternal animals relative to their fetuses ([2]; 55 mg/kg sc): 3-7 times
average brain to plasma ratio, female fetuses ([2]; maternal dose 55 mg/kg sc): 0.20
average brain to plasma ratio, fetuses ([2]; maternal dose 55 mg/kg sc): 0.20
average brain to plasma ratio, male fetuses ([2]; maternal dose 55 mg/kg sc): 0.19
viability of fetuses ([2]; maternal dose 55 mg/kg sc): all fetuses were viable
